IC50 data for 21 compounds are collected here from patent publication US20250333418A1, “PURINE COMPOUNDS, COMPOSITIONS COMPRISING THEM AND USES THEREOF” (Novo Nordisk A/S, priority 2022, published 2025).

The chains behind the UniProt entries cited, without tags or fusion partners.
UniProt P21554, whole entry: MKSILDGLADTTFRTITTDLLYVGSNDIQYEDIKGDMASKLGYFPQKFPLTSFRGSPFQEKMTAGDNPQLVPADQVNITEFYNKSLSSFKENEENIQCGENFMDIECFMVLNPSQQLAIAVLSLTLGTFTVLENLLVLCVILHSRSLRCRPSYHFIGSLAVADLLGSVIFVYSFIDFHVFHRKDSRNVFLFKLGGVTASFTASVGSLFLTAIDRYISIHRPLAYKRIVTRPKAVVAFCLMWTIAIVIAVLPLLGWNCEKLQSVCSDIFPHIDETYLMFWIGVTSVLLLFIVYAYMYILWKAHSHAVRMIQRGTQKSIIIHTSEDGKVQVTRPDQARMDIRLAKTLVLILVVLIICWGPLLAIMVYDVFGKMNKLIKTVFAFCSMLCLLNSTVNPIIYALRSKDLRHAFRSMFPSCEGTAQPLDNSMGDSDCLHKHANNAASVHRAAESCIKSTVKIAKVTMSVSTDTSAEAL

In test [1] the target is T1, human CB1 receptor (Homo sapiens, UniProt P21554). Nature of the test: bioSensAll β-arrestin2 plasma membrane translocation (+GRK2) BRET biosensor assay in HEK293 cells transfected with hCB1; test compound added before EC75-80 of agonist CP55,940 (100 nM). Particulars: read-out: CB1 wt βarr2 IC50, βArrestin2 (+GRK2) BRET biosensor, vs CP55,940 100 nM (EC75-80). The method, then: (§1) Using polyethylenimine (PEI) transfection agent, HEK293 cells were transfected in suspension with the human CB1 receptor and one of the following bioSensAll® assays: GAPL-Gi2, or β-arrestin plasma membrane (PM) translocation biosensor (+GRK2). Cells were directly seeded in 96-well plates immediately following transfection.
(§2) Cells were incubated with coelenterazine (luciferase substrate) and different test compounds prior to the measurement of BRET signals.
(§3) Used in this project are i) Gα plasma membrane (GAPL) biosensors and the ii) β-arrestin plasma membrane translocation biosensor.
ii) The multimolecular β-arrestin membrane recruitment biosensors allow for real-time spatio-temporal monitoring of β-arrestin 1 and β-arrestin 2 following GPCR activation. Specifically, these β-arrestin sensors were designed to detect the recruitment of proteins to the plasma membrane (β-arrestin PM) with localization to compartment resulting in an increased BRET signal.
(§4) HEK293 cells were maintained in Dulbecco's Modified Eagle Medium (DMEM) (Wisent; cat #319-030-CL: without sodium pyruvate, with 4.5 g/L glucose, without L-glutamine) supplemented with 1% penicillin-streptomycin (Wisent; cat #450-201-EL) and 2 or 10% fetal bovine serum (Wisent cat #090150).
(§5) HEK293 cells were co-transfected with hCB1 and one of the above-listed bioSensAll® assays. For each transfection condition: • the total amount of transfected DNA was kept constant at 1 μg per mL of cell culture to be transfected; whenever necessary, salmon sperm DNA (Invitrogen, cat #15632011) was used as ‘carrier’ DNA to supplement plasmid DNA (i.e., biosensor and receptor); • the PEI (polyethylenimine 25 kDa linear, PolyScience, cat #23966) to DNA ratio (ug:ug) was fixed at 3:1.
(§6) Transfections were carried out as follows: • DNA and PEI were first diluted separately in 150 mM NaCl. The volume of the diluent in each tube corresponds to 5% of the cell culture volume to be transfected. • Once DNA and PEI were diluted, the PEI-containing solution was added to the DNA solution and the DNA/PEI mixture immediately vortexed for 5 seconds. • The DNA/PEI mixture was incubated for at least 20 minutes at room temperature to allow for the formation of DNA/PEI complexes. • During the incubation, HEK293 cells were detached, counted and re-suspended in culture medium (composition specified above). • At the end of the incubation period, the DNA/PEI mixture was added to the cells. • Cells were finally distributed in 96-well plates (White Opaque 96-well/Microplates, Greiner, cat #655083 or CulturPlate-96, White Opaque 96-well Microplate, PerkinElmer, cat #6005688) at a density of 30,000 cells per well.
(§7) At 48 hours post-transfection: • Using 450-Select TS Biotek plate washer, culture medium was aspirated and replaced with 100 μL of Hank's Balanced Salt Solution buffer (HBSS) (Wisent, cat #319-067CL: without red phenol; with sodium bicarbonate, with calcium and magnesium, with HEPES) per well. • Plates were then incubated (equilibrated) at 37° C., 5% CO2 for 60 minutes. • Increasing doses of test compounds were then added to each well using the HP D300e digital dispenser (Tecan). All compounds were assayed at the following 12 concentrations (in nM) with each biosensor: 0.000, 0.013, 0.040, 0.120, 0.320, 0.960, 2.80, 8.00, 24.0, 70.0, 205 and 600. • Three to 5 minutes later, an assay-specific effective concentration (EC)75-80 of agonist CP55,940 (i.e., 0.1 nM and 100 nM for G[…]i2-GAPL or […]Arrestin2 (+GRK2) assay, respectively) was added to wells previously injected with test compound (i.e., previous step 3). […]
(Bioluminescence resonance energy transfer reports proximity on the nanometre scale.)

The target in test [2] is T1, human CB1 receptor. Nature of the test: bioSensAll GAPL-Gi2 BRET biosensor assay in HEK293 cells transfected with hCB1; test compound added before EC75-80 of agonist CP55,940 (0.1 nM). Particulars: read-out: CB1 wt Gi2 IC50, vs CP55,940 0.1 nM (EC75-80). How it is done: as §1, §2, §3
i) GAPL sensors are used to monitor the activation of heterotrimeric G proteins at the plasma membrane upon receptor stimulation. Specifically, these multimolecular BRET sensors detect the plasma membrane recruitment of proteins that interact with active Gα subunits in a G protein family-selective manner. G protein activation following receptor stimulation generally leads to an increase in the BRET signal.
as §4, §5, §6, §7

Molecules are shown by their SMILES.

Usually IC50 stands for the concentration that inhibits the measured activity by half.

As for `CN1C[C@H](O)C[C@H]1COc1nc(N2CCC(C)(C(N)=O)CC2)c2nc(-c3ccccc3Cl)n(-c3ccc(Cl)cc3)c2n1`, the half-inhibitory concentration (IC50) at human CB1 receptor [1] came out at 28.5 nM; at human CB1 receptor [2], 1.31 nM.
Consider `CN(CCO)c1nc(N(C)[C@@H]2CCOC2)c2nc(-c3ccccc3Cl)n(-c3ccc(Cl)cc3)c2n1`, for which the half-inhibitory concentration (IC50) at human CB1 receptor [1] worked out at 1.42 nM; on human CB1 receptor [2] it was 0.186 nM.
Take `CN(CCO)c1nc(N2CCO[C@@H](CO)C2)c2nc(-c3ccccc3Cl)n(-c3ccc(Cl)cc3)c2n1`: the figures for the 50% inhibitory concentration (IC50) on human CB1 receptor [1] and on human CB1 receptor [2] were 14.3 nM and 0.887 nM, respectively.
The like results for `CC(C)(O)COc1nc(N2CCC[C@H](C(N)=O)C2)c2nc(-c3ccccc3Cl)n(-c3ccc(Cl)cc3)c2n1` were, in that order, 38.8 nM and 5.91 nM.
For `CCOC1(C(N)=O)CCN(c2nc(N3CC[C@@](C)(O)C3)nc3c2nc(-c2ccccc2Cl)n3-c2ccc(Cl)cc2)CC1` the same measures were 2.57 nM and 0.881 nM.
The like results for `OC[C@H]1CN(c2nc(N3CCC[C@H]3CO)nc3c2nc(-c2ccccc2Cl)n3-c2ccc(Cl)cc2)CCO1` were, in that order, 5.27 nM and 0.962 nM.
For `CN(CCO)c1nc(N2CC[C@@H](CO)C2)c2nc(-c3ccccc3Cl)n(-c3ccc(Cl)cc3)c2n1`, the figures for the IC50 at human CB1 receptor [1] and at human CB1 receptor [2] were 1.21 nM and 0.226 nM, respectively.
The like results for `CN(CCO)c1nc(N[C@H]2CCOC2)c2nc(-c3ccccc3Cl)n(-c3ccc(Cl)cc3)c2n1` were, in that order, 3.88 nM and 0.394 nM.
As for `CC(C)(O)COc1nc(N2CCC(O)(C(N)=O)CC2)c2nc(-c3ccccc3Cl)n(-c3ccc(Cl)cc3)c2n1`, the results for the IC50 at human CB1 receptor [1] and on human CB1 receptor [2] were 141 nM and 16.8 nM, respectively.
In the case of `CN(CCO)c1nc(N[C@@H]2CCS(=O)(=O)C2)c2nc(-c3ccccc3Cl)n(-c3ccc(Cl)cc3)c2n1`, the IC50 on human CB1 receptor [1] amounted to 15.8 nM; on human CB1 receptor [2], 1.23 nM.
For `CC(C)Oc1nc(O[C@@H](C)CO)nc2c1nc(-c1ccccc1Cl)n2-c1ccc(Cl)cc1` the same measures were 10.3 nM and 1.37 nM.
As for `CC(=O)NC1(C)CN(c2nc(OCC(C)(C)O)nc3c2nc(-c2ccccc2Cl)n3-c2ccc(Cl)cc2)C1`, the 50% inhibitory concentration (IC50) on human CB1 receptor [1] stood at 22.3 nM; on human CB1 receptor [2], 2.37 nM.
The like results for `CN(CCO)c1nc(N[C@H]2CCS(=O)(=O)C2)c2nc(-c3ccccc3Cl)n(-c3ccc(Cl)cc3)c2n1` were, in that order, 4.75 nM and 0.752 nM.
For `CC(C)(O)COc1nc(N2CC[C@@](C)(O)C2)c2nc(-c3ccccc3Cl)n(-c3ccc(Cl)cc3)c2n1` the same measures were 21.6 nM and 3.09 nM.
Consider `CC(=O)NC1(C)CN(c2nc(N3CCC[C@H]3CO)nc3c2nc(-c2ccccc2Cl)n3-c2ccc(Cl)cc2)C1`, for which the IC50 amounted to 1.27 nM at human CB1 receptor [1] and 0.49 nM at human CB1 receptor [2].
Turning to `CC(C)OC1(C(N)=O)CCN(c2nc(N3CCC[C@H]3CO)nc3c2nc(-c2ccccc2Cl)n3-c2ccc(Cl)cc2)CC1`, the IC50 on human CB1 receptor [1] amounted to 1.56 nM; on human CB1 receptor [2], 1.02 nM.
Turning to `CN1CC(F)(F)C[C@H]1COc1nc(N2CCC(C)(C(N)=O)CC2)c2nc(-c3ccccc3Cl)n(-c3ccc(Cl)cc3)c2n1`, the IC50 at human CB1 receptor [1] is 12.5 nM; on human CB1 receptor [2], 3.65 nM.
For `CC(C)(O)COc1nc(N2CCC[C@@H](C(N)=O)C2)c2nc(-c3ccccc3Cl)n(-c3ccc(Cl)cc3)c2n1`, the IC50 at human CB1 receptor [1] came out at 14.8 nM; on human CB1 receptor [2], 1.88 nM.
In the case of `CN1CCC[C@@H]1COc1nc(N2CCC(C)(C(N)=O)CC2)c2nc(-c3ccccc3Cl)n(-c3ccc(Cl)cc3)c2n1`, the 50% inhibitory concentration (IC50) was 2.76 nM at human CB1 receptor [1] and 0.895 nM on human CB1 receptor [2].
For `CN(CCO)c1nc(N[C@@H]2CCOC2)c2nc(-c3ccccc3Cl)n(-c3ccc(Cl)cc3)c2n1` the same measures were 6.02 nM and 0.445 nM.
The like results for `CN(CCO)c1nc(N2CC[C@H](CO)C2)c2nc(-c3ccccc3Cl)n(-c3ccc(Cl)cc3)c2n1` were, in that order, 3.94 nM and 0.645 nM.
